# Earlier results in PMC8518066, “Efficient Entropy‐Driven Inhibition of Dipeptidyl Peptidase III by Hydroxyethylene Transition‐State Peptidomimetics” (Chemistry (Weinheim an Der Bergstrasse, Germany), 2021).
# Details: 37 °C; cited from earlier work
substance,measurement,value
tynorphin [reference compound],time to complete degradation in human serum,≤ 4 h
